This assay addresses GST-ALK5 (Homo sapiens, UniProt P36897). In words: In-vitro (enzyme) kinase assay, 384-well flashplate, inhibition of TGF-beta receptor I kinase. To be noted: read-out: Inhibition of TGF-beta IC50, 31.2 nM GST-ALK5, 439 nM GST-SMAD2, 3 mM ATP (33P-ATP), 30° C., 45 min. The protocol: In-Vitro (Enzyme) Assay for the Determination of the Efficacy of Inhibitors of the Inhibition of TGF-Beta-Promoted Effects Vermittelten Wirkungen
The kinase assay is carried out as 384-well flashplate assay. 31.2 nM of GST-ALK5, 439 nM of GST-SMAD2 and 3 mM of ATP (with 0.3 μCi of ^33P-ATP/well) are incubated in a total volume of 35 μl (20 mM of HEPES, 10 mM of MgCl, 5 mM of MnCl, 1 mM of DTT, 0.1% of BSA, pH 7.4) without or with test substance (5-10 concentrations) at 30° C. for 45 min. The reaction is stopped using 25 μl of 200 mM EDTA solution, filtered with suction at room temperature after 30 min, and the wells are washed with 3 times 100 μl of 0.9% NaCl solution. Radioactivity is measured in the TopCount. The IC50 values are calculated using RS1.

Sequences of proteins named here, by UniProt entry; tags and fusion partners are left off. Residues count along the entry.
UniProt P36897, 34-503 limits assumed: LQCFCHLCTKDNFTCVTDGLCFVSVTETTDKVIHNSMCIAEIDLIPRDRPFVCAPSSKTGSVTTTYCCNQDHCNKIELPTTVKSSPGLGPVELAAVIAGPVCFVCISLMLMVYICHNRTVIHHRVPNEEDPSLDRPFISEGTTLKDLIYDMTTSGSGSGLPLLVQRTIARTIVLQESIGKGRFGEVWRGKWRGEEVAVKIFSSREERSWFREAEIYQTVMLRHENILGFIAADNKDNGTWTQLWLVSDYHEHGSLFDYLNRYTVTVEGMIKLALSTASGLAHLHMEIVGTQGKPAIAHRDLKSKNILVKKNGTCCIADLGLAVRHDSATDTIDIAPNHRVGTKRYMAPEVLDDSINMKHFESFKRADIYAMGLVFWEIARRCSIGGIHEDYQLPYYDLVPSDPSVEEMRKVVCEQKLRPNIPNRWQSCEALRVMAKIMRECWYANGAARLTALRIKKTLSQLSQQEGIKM

With `Cc1cccc(-c2nc(C(C)(C)C)nc3sc(C(N)=O)c(N)c23)n1`, the 50% inhibitory concentration (IC50) amounted to 74 nM.

The values are drawn from US20110028472A1, “THIENOPYRIMIDINES” (MERCK PATENT CESELLSCHAFT MIT BESCHRANKTER HAFTUNG, priority 2008, published 2011).
